Experimental data as given in patent US10030004B2, “Compounds and methods of use” (Medivation Technologies LLC, priority 2014, dated 2018).
pIC50: −log10 of the molar value.

By UniProt entry, the sequences of proteins in these tests, tags left out. Residues count along the entry.
UniProt P36894, 24-532: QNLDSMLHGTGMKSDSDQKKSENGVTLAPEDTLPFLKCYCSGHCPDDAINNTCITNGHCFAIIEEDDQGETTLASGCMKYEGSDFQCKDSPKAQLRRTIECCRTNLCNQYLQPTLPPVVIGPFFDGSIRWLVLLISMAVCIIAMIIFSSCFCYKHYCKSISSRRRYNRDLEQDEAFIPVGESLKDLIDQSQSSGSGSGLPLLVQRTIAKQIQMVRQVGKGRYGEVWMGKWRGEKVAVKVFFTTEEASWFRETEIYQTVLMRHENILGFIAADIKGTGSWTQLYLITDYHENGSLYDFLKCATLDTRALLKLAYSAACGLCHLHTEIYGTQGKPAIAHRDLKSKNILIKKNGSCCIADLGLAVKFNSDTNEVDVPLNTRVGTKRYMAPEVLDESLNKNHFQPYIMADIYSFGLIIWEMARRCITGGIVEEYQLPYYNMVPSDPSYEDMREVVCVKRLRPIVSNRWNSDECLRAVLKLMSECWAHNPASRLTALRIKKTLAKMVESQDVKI

Molecular target: ALK3 (BMPR1A) (Homo sapiens (Human), UniProt P36894)
Assay: In vitro kinase assay, ALK3
Assay type: biochemical
Conditions: read-out: Inhibition of ALK3 IC50

Q: `COC(C)(C)c1cnc(-c2cc(Cl)ccc2F)cc1Nc1ccncc1C(=O)NCC(C)O` (single isomer, unassigned) [17a, 4-[[2-(5-chloro-2-fluoro-phenyl)-5-(1-methoxy-1-methyl-ethyl)-4-pyridyl]amino]-N-(2-hydroxypropyl)pyridine-3-carboxamide] was tested. Which pIC50 did it give?
A: The pIC50 was < 3.00.
